We go through one molecule from patent EP0521963B1, “CRF ANALOGS” (THE SALK INSTITUTE FOR BIOLOGICAL STUDIES, priority 1990, dated 1998).

A short description of assay [1]: Lowering of blood pressure. The format is in vivo. As to conditions: result in words; method details not given.
Assay [2] relates to cultured rat pituitary cells. Kind of assay: Stimulation of secretion of ACTH and β-endorphin by cultured rat pituitary cells (procedure of Endocrinology, 91, 562 (1972)). As to conditions: testing in accordance with the general procedure set forth hereinbefore; result in words. The format is cell-based. The source says:
This synthetic peptide is examined for its effects on the secretion of ACTH and β-endorphin in vitro and also in vivo.

Consider `CCCC[C@H](NC(=O)[C@H](CCC(=O)O)NC(=O)[C@H](CC(C)C)NC(=O)[C@@H](NC(=O)[C@H](CCC(=O)O)NC(=O)[C@H](CCCNC(=N)N)NC(=O)[C@H](CC(C)C)NC(=O)[C@H](CC(C)C)NC(=O)[C@H](Cc1c[nH]cn1)NC(=O)[C@@H](Cc1ccccc1)NC(=O)[C@@H](NC(=O)[C@H](CC(C)C)NC(=O)[C@H](CC(=O)O)NC(=O)[C@H](CC(C)C)NC(=O)[C@H](CO)NC(=O)[C@@H](NC(=O)[C@@H]1CCCN1C(=O)[C@@H]1CCCN1C(=O)[C@H](CCC(=O)O)NC(=O)[C@H](CCC(N)=O)NC(=O)[C@@H](N)CO)[C@@H](C)CC)[C@@H](C)O)C(C)C)C(=O)N[C@H](C(=O)N[C@@H](CCCCN)C(=O)N[C@@H](C)C(=O)N[C@@H](CC(=O)O)C(=O)N[C@@H](CCC(N)=O)C(=O)N[C@@H](CC(C)C)C(=O)N[C@@H](C)C(=O)N[C@@H](CCC(N)=O)C(=O)N[C@@H](CCC(N)=O)C(=O)N[C@@H](C)C(=O)N[C@@H](Cc1c[nH]cn1)C(=O)N[C@@H](CO)C(=O)N[C@@H](CC(N)=O)C(=O)N[C@@H](CCCNC(=N)N)C(=O)N[C@@H](CCCCN)C(=O)N[C@@](C)(CC(C)C)C(=O)N[C@@H](CCCC)C(=O)N[C@@H](CC(=O)O)C(=O)N[C@H](C(=O)N[C@@H](C)C(N)=O)[C@@H](C)CC)[C@@H](C)O` [V, [D-Phe^12, Nle^21,38, CML^37]-oCRF], for which the “lowering of blood pressure” value in assay [1] was “very significant lowering of blood pressure”. Further, the “secretion of ACTH and β-END-LI” value in assay [2] is “stimulates the secretion of ACTH and β-END-LI”.
